Test results: ChEMBL document CHEMBL4229567, “Aiming to Miss a Moving Target: Bromo and Extra Terminal Domain (BET) Selectivity in Constrained ATAD2 Inhibitors” (J Med Chem, 2018)

Target: Bromodomain-containing protein 4 (Homo sapiens, UniProt O60885)
Assay: Inhibition of 6His-tagged Thr-BRD4 (BD1) (1 to 477 residues) (unknown origin) expressed in Escherichia coli BL21(DE3) after 30 mins in presence of biotinylated triacetylated histone H4 peptide by alexa fluor 647 dyse based TR-FRET assay

Compound | IC50 [µM]
Cc1cc2c(-c3cncc(N)c3)cnc(N[C@@H]3CCNC[C@H]3OCC3CCCCC3)c2[nH]c1=O | 0.631
Cc1cncc(-c2ccc(N[C@@H]3CCNC[C@H]3OCC3CCS(=O)(=O)CC3)c3[nH]c(=O)c(C)cc23)c1 | 3.98
